# Experimental data reported in US20220298256A1.
# Molecular target: His-tagged HER2 (UniProt P04626)
# Assay: SPR (Biacore T200), His-HER2 captured by anti-His on a CM5 chip, high-density surface (200RU), multicycle kinetics
substance,measurement,value
wild-type Trastuzumab (HEK293-expressed) (antibody),koff,6e-07 s⁻¹
